Source: ChEMBL document CHEMBL4118142, “Novel amidrazone derivatives: Design, synthesis and activity evaluation” (Bioorg Med Chem, 2018)
The source made the active and inactive calls. The rule behind the calls is not given here.

Target: T1, Acid-sensing ion channel 1 (Rattus norvegicus) (UniProt P55926)
T1 sequence (whole entry): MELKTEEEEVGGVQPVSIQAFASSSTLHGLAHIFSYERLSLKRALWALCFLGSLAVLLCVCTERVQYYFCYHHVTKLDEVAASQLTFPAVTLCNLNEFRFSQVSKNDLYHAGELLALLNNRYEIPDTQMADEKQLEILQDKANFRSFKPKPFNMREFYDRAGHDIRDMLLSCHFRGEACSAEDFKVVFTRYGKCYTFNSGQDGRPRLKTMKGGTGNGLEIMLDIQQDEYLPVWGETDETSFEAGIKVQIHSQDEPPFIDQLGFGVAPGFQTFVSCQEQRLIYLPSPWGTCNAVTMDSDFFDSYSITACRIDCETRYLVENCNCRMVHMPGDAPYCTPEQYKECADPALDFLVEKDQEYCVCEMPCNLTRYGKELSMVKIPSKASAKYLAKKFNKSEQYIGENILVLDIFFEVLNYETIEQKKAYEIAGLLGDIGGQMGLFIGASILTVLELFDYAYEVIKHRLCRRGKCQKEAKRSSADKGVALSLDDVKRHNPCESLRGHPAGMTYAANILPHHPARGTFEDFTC
Assay: Inhibition of acid-induced ASIC1a protein expression in rat articular chondrocytes at 100 uM pretreated for 24 hrs followed by acid medium stimulation at pH 6 for 3 hrs by Western blot analysis
Assay type: cell-based
Method in brief: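 Freshly isolated primary rat articular chondrocytes were cultured in DMEM with 10% FBS at 37 °C and 5% CO2. They were pretreated with compound for 24 h at pH 7.4, then exposed to pH 6.0 medium for 3 h, with cells kept at pH 7.4 as control. After PBS washes, lysates were immunoblotted for ASIC1a against a β-actin internal control. Values are mean ± SD of three independent experiments.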

N=C(N)NC(=O)c1nc(Cl)c(N)nc1N [AMILORIDE]
inhibition: Active
